Experimental data published in EP2982680B1, “PROTAMINE PEPTIDOMIMETIC, AND PHARMACEUTICALLY ACCEPTABLE SALTS AND USE THEREOF” (Academy of Military Medical Sciences, priority 2013, dated 2014).
Structures can show the parent of a compound that is named as a salt.

What was measured:
[1] = Water solubility of synthesized peptides
Kunming mice = assay: Acute toxicity test, tail vein injection (Bliss method); type: in vivo; settings: for % Death (%): tail vein
Experimental: (§1) Sixteen healthy mice with a body weight of 18 to 22 g were selected which were not pregnant. They were provided with water but no food before the pilot trial. The protamine-like peptide was administrated at a dose (75 mg/kg) three times that of theoretically estimated one (25mg/kg). […] After administration, the mice were observed continuously for one week, and the general conditions such as the mental state as well as toxic response and death instances were recorded.
(§2) Based on the doses causing 0% and 100% mortality, the animals were divided into 6 groups with doses being respectively 25, 30, 35, 40, 45, and 50 mg/kg by using a dose ratio of about 0.85,
(§3) Seventy healthy mice which were not pregnant were taken and provided with water but no food prior to the test. The mice were randomly divided into six groups (10 mice per group) based on the body weight and the gender with half mice in each group being males. One group was injected with normal saline, and the other five groups were administrated with protamine-like peptides with different concentrations. On the day of test, mice in test groups received one dose via injection into tail veins whereas mice in control group received the same volume of normal saline. After administration, the mice were observed consecutively for two weeks, and the general conditions such as the mental state as well as toxic response and death instances were recorded.
(§4) Table 11. Median lethal dose calculated with Bliss method

[2] = as above; type: in vivo, Kunming mice; settings: both sexes, Kunming, mouse, in vivo, iv; mice, tail vein injection, Bliss method; read-out: Median lethal dose LD50
Experimental: as §1, §2, §3, §4

In the case of `N[C@@H](Cc1c[nH]cn1)C(=O)N[C@@H](Cc1c[nH]cn1)C(=O)N[C@@H](Cc1c[nH]cn1)C(=O)N[C@@H](Cc1c[nH]cn1)C(=O)N[C@@H](Cc1c[nH]cn1)C(=O)N[C@@H](Cc1c[nH]cn1)C(=O)N[C@@H](Cc1c[nH]cn1)C(=O)N[C@@H](Cc1c[nH]cn1)C(=O)N[C@@H](Cc1c[nH]cn1)C(=O)N[C@@H](Cc1c[nH]cn1)C(=O)N[C@@H](Cc1c[nH]cn1)C(=O)N[C@@H](Cc1c[nH]cn1)C(=O)N[C@@H](Cc1c[nH]cn1)C(=O)N[C@@H](Cc1c[nH]cn1)C(=O)N[C@@H](Cc1c[nH]cn1)C(=O)O` [H15, (H)15], the water solubility [1] is reported as “good water solubility”.

In the case of `N=C(N)NCCC[C@H](NC(=O)[C@H](CCCNC(=N)N)NC(=O)[C@H](CCCNC(=N)N)NC(=O)[C@H](CCCNC(=N)N)NC(=O)[C@H](CCCNC(=N)N)NC(=O)[C@H](CCCNC(=N)N)NC(=O)[C@H](CCCNC(=N)N)NC(=O)[C@H](CCCNC(=N)N)NC(=O)[C@H](CCCNC(=N)N)NC(=O)[C@H](CCCNC(=N)N)NC(=O)[C@H](CCCNC(=N)N)NC(=O)[C@H](CCCNC(=N)N)NC(=O)[C@H](CCCNC(=N)N)NC(=O)[C@H](CCCNC(=N)N)NC(=O)[C@@H](N)CCCNC(=N)N)C(=O)O` [R15 sulfate, (R)15 sulfate], the water solubility [1] is reported as “good water solubility”.

For `N=C(N)NCCC[C@H](NC(=O)[C@H](CCCNC(=N)N)NC(=O)[C@H](CCCNC(=N)N)NC(=O)[C@H](CCCNC(=N)N)NC(=O)[C@H](CCCNC(=N)N)NC(=O)[C@H](CCCNC(=N)N)NC(=O)[C@H](CCCNC(=N)N)NC(=O)[C@H](CCCNC(=N)N)NC(=O)[C@H](CCCNC(=N)N)NC(=O)[C@H](CCCNC(=N)N)NC(=O)[C@H](CCCNC(=N)N)NC(=O)[C@H](CCCNC(=N)N)NC(=O)[C@H](CCCNC(=N)N)NC(=O)[C@H](CCCNC(=N)N)NC(=O)[C@@H](N)CCCNC(=N)N)C(=O)O` [R15, (R)15], the “time of death after injection” value (Kunming mice; all death cases) was ≤ 2 h, the “Regression probability unit (Y)” value (Kunming mice; dose 25 mg/kg) was 3.2962 and the “% Death (%)” value (Kunming mice; dose 25 mg/kg) was 0.00%. For the same compound, the “Regression probability unit (Y)” value (Kunming mice; dose 30 mg/kg) was 4.1897, the “Test probability unit (Y)” value (Kunming mice; dose 30 mg/kg) was 4.476 and the “% Death (%)” value (Kunming mice; dose 30 mg/kg) was 30.00%. For the same compound, the “Regression probability unit (Y)” value (Kunming mice; dose 35 mg/kg) was 4.9452, the “Test probability unit (Y)” value (Kunming mice; dose 35 mg/kg) was 5 and the “% Death (%)” value (Kunming mice; dose 35 mg/kg) was 50.00%. For the same compound, the “Regression probability unit (Y)” value (Kunming mice; dose 40 mg/kg) was 5.5996, the “Test probability unit (Y)” value (Kunming mice; dose 40 mg/kg) was 5.524 and the “% Death (%)” value (Kunming mice; dose 40 mg/kg) was 70.00%. For the same compound, the “Regression probability unit (Y)” value (Kunming mice; dose 45 mg/kg) was 6.1768, the “Test probability unit (Y)” value (Kunming mice; dose 45 mg/kg) was 5.8415 and the “% Death (%)” value (Kunming mice; dose 45 mg/kg) was 80.00%. For the same compound, the “Regression probability unit (Y)” value (Kunming mice; dose 50 mg/kg) was 6.6932, the “% Death (%)” value (Kunming mice; dose 50 mg/kg) was 1E2% and the “time of death after injection” value (Kunming mice; groups with high doses (40mg / kg and 45mg / kg)) was “around 10 min”. The “Median lethal dose LD50” value (Kunming mice; mice, tail vein injection, Bliss method) was 35.394 mg/kg, the “time of death after injection” value (Kunming mice; most mice of the death cases) was ≤ 0.5 h and the “dose resulting in 0% mortality” value (Kunming mice; pilot trial, all 3 test mice survived) was 25 mg/kg. For the same compound, the “dose causing 100% mortality” value (Kunming mice; pilot trial, all 3 test mice were dead) was 50 mg/kg, the “time until survived mice returned to normal state” value (Kunming mice; survived mice) was ~12 h and the LD50 at 336 h [2] was 35.4 mg/kg. The water solubility [1] was “good water solubility”.
